Reference: patent US9890152B2 (Genentech, Inc., priority 2012, dated 2018)
Where a name gives a salt, the structure may show the parent alone.

The chains behind the UniProt entries cited, without tags or fusion partners. Residues count along the entry.
UniProt P00533, 25-1210 T790M/L858R limits assumed: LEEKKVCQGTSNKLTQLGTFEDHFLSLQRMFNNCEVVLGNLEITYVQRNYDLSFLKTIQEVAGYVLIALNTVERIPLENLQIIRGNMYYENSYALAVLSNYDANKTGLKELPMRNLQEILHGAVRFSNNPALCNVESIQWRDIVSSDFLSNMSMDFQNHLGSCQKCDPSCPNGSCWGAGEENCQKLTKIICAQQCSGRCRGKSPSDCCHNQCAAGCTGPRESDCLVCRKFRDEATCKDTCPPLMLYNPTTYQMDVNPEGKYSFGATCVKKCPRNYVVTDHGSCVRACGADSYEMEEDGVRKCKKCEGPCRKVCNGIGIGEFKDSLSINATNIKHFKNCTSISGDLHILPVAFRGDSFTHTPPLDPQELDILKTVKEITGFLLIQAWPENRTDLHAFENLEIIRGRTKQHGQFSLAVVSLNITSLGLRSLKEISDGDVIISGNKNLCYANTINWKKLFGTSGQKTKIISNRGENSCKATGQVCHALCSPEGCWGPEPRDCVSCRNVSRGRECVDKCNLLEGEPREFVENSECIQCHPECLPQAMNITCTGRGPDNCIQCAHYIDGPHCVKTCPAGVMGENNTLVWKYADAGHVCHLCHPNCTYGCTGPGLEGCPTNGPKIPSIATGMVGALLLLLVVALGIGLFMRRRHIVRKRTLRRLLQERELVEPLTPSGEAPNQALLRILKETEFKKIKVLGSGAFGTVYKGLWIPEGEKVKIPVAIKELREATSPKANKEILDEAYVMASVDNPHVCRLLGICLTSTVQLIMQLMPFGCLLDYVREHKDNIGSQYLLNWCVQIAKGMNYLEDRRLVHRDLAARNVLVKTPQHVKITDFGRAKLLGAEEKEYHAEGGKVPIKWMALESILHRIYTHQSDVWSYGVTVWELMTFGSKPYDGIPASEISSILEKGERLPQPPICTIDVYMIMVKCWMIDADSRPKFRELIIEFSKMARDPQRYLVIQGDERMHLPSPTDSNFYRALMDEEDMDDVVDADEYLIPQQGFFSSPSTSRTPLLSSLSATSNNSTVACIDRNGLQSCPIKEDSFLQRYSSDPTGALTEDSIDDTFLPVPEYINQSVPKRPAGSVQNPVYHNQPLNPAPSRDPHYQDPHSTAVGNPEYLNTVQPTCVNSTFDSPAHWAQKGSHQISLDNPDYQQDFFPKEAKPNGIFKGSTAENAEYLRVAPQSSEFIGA

Molecular target: EGFR T790M L858R (Homo sapiens, UniProt P00533, L858R/T790M)
Experiment: biochemical
Details: EGFR(T790M/L858R) Ki (μM), 5 μM ATP, 30 min, room temperature; apparent Ki (Morrison) converted by Cheng-Prusoff, Km of ATP 1.3 μM

| SMILES | Ki [µM] |
| --- | --- |
| CC(C)n1cnc2cnc(Nc3ccnc(N4CCC(N5CCCS5(=O)=O)CC4)n3)cc21 [Example 155, {2-[4-(1,1-Dioxo-1lambda^6-isothiazolidin-2-yl)piperidin-1-yl]pyrimidin-4-yl}-(1-isopropyl-1H-imidazo[4,5-c]pyridin-6-yl)amine formate salt] | 0.734 |
| COCCOC1CCN(c2nccc(Nc3cc4c(cn3)ncn4C(C)C)n2)CC1 [Example 156, (1-Isopropyl-1H-imidazo[4,5-c]pyridin-6-yl)-{2-[4-(2-methoxyethoxy)piperidin-1-yl]pyrimidin-4-yl}amine] | 0.166 |
| COC1CCN(c2nccc(Nc3cc4c(cn3)ncn4C(C)C(F)(F)F)n2)CC1 (stereo not drawn) [Example 157, [2-(4-Methoxypiperidin-1-yl)pyrimidin-4-yl]-[1-(2,2,2-trifluoro-1-methylethyl)-1H-imidazo[4,5-c]pyridin-6-yl]amine formate salt] | 0.0281 |
| CC(C)n1cnc2cnc(Nc3ccnc(N4CCC(C(C)(C)C(N)=O)CC4)n3)cc21 [Example 158] | 0.452 |
| CC(C)n1cnc2cnc(Nc3ccnc(N4CCc5ncn(C)c5C4)n3)cc21 [Example 159, (1-Isopropyl-1H-imidazo[4,5-c]pyridin-6-yl)-[2-(3-methyl-3,4,6,7-tetrahydroimidazo[4,5-c]pyridin-5-yl)pyrimidin-4-yl]amine] | 0.354 |
| Cc1nc2cnc(Nc3ccnc(N4CC=CCC4)n3)cc2n1C(C)C [Example 160, [2-(3,6-Dihydro-2H-pyridin-1-yl)-pyrimidin-4-yl]-(1-isopropyl-2-methyl-1H-imidazo[4,5-c]pyridin-6-yl)amine] | 0.0693 |
| CC(C)n1cnc2cnc(Nc3ccnc(N4CCC(OCCN(C)C)CC4)n3)cc21 [Example 161, {2-[4-(2-Dimethylaminoethoxy)piperidin-1-yl]pyrimidin-4-yl}-(1-isopropyl-1H-imidazo[4,5-c]pyridin-6-yl)amine] | 0.577 |
| CC(C)n1cnc2cnc(Nc3ccnc(N4CCC(CCN(C)C)CC4)n3)cc21 [Example 162, {2-[4-(2-Dimethylaminoethyl)-piperidin-1-yl]pyrimidin-4-yl}-(1-isopropyl-1H-imidazo[4,5-c]pyridin-6-yl)amine] | 1.17 |
| COC1CCN(c2nccc(Nc3cc4c(cn3)nc(C)n4C(C)(C)C)n2)CC1 [Example 163, (1-tert-butyl-2-methyl-1H-imidazo[4,5-c]pyridin-6-yl)-[2-(4-methoxypiperidin-1-yl)pyrimidin-4-yl]amine] | 0.0175 |
| CC(C)n1cnc2cnc(Nc3ccnc(C4CCN(S(C)(=O)=O)CC4)n3)cc21 [Example 165, (1-Isopropyl-1H-imidazo[4,5-c]pyridin-6-yl)-[2-(1-methanesulfonylpiperidin-4-yl)pyrimidin-4-yl]amine] | 0.614 |
| CC(C)n1cnc2cnc(Nc3ccnc(NCC(C)(C)O)n3)cc21 [Example 166] | 0.569 |
| CC(C)n1cnc2cnc(Nc3ccnc(NCC4CC4)n3)cc21 [Example 167] | 0.205 |
| CC(C)n1cnc2cnc(Nc3ccnc(N4CCCC(O)C4)n3)cc21 (stereo not drawn) [Example 168] | 0.311 |
| CC(C)n1cnc2cnc(Nc3ccnc(N4CCOC(C(N)=O)C4)n3)cc21 (stereo not drawn) [Example 169] | 0.148 |
| CC(C)n1cnc2cnc(Nc3ccnc(N4CCN5CCCCC5C4)n3)cc21 (stereo not drawn) [Example 170] | 0.229 |
| CC(C)n1cnc2cnc(Nc3ccnc(N4CCCNC(=O)C4)n3)cc21 [Example 171] | 0.604 |
| CC(C)n1cnc2cnc(Nc3ccnc(N4CCN(CCO)CC4)n3)cc21 [Example 172] | 0.503 |
| CC(C)n1cnc2cnc(Nc3ccnc(N(C)CC4CCCO4)n3)cc21 (stereo not drawn) [Example 173] | 0.709 |
| COCCN1CCN(c2nccc(Nc3cc4c(cn3)ncn4C(C)C)n2)CC1 [Example 174] | 0.573 |
| CC(C)n1cnc2cnc(Nc3ccnc(NC4CCCC(O)C4)n3)cc21 (stereo not drawn) [Example 175] | 0.508 |
| CC(C)n1cnc2cnc(Nc3ccnc(N4CC5CC4C5)n3)cc21 [Example 176] | 0.279 |
| CC(C)n1cnc2cnc(Nc3ccnc(N4CCC(CN5CCCC5=O)CC4)n3)cc21 [Example 177] | 1.35 |
| CC(=O)N1CCC(Nc2nccc(Nc3cc4c(cn3)ncn4C(C)C)n2)CC1 [Example 178] | 1.05 |
| CNC(=O)C1(C)CN(c2nccc(Nc3cc4c(cn3)ncn4C(C)C)n2)CCO1 (stereo not drawn) [Example 179] | 0.164 |
| CC1CN(c2nccc(Nc3cc4c(cn3)ncn4C(C)C)n2)CCN1C(=O)OC(C)(C)C (stereo not drawn) [Example 180] | 0.31 |

| SMILES | Ki [µM] |
| --- | --- |
| CC(C)n1cnc2cnc(Nc3ccnc(N4CCN(C(=O)OC(C)(C)C)CC4)n3)cc21 [Example 181] | 0.118 |
| COC1C2CCC1N(c1nccc(Nc3cc4c(cn3)ncn4C(C)C)n1)C2 (stereo not drawn) [Example 182] | 0.542 |
| CNC(=O)C1CCN(c2nccc(Nc3cc4c(cn3)ncn4C(C)C)n2)C1 (stereo not drawn) [Example 183] | 1.64 |
| CC(=O)N1CCCN(c2nccc(Nc3cc4c(cn3)ncn4C(C)C)n2)CC1 [Example 184] | 1.08 |
| CC(C)n1cnc2cnc(Nc3ccnc(N4CCC(F)(F)C4)n3)cc21 [Example 185] | 0.191 |
| CC(C)n1cnc2cnc(Nc3ccnc(N4CC5C(C4)C5C(N)=O)n3)cc21 (stereo not drawn) [Example 186] | 0.248 |
| CC(C)n1cnc2cnc(Nc3ccnc(N4CCC(CO)CC4)n3)cc21 [Example 187] | 0.136 |
| CC(C)n1cnc2cnc(Nc3ccnc(N4CC5(CCCCO5)C4)n3)cc21 [Example 188] | 0.816 |
| CC(C)n1cnc2cnc(Nc3ccnc(N4CCN(C5CC5)CC4)n3)cc21 [Example 189] | 1.17 |
| CC(C)n1cnc2cnc(Nc3ccnc(N4CC(F)C(F)C4)n3)cc21 (stereo not drawn) [Example 190] | 0.122 |
| CC(C)n1cnc2cnc(Nc3ccnc(N4CC5CC4CC5F)n3)cc21 (stereo not drawn) [Example 191] | 0.0708 |
| CC(C)n1cnc2cnc(Nc3ccnc(N4CCC5(CCNC5=O)C4)n3)cc21 (stereo not drawn) [Example 192] | 1.28 |
| COC(C)(C)CNc1nccc(Nc2cc3c(cn2)ncn3C(C)C)n1 [Example 193] | 0.702 |
| CC(C)n1cnc2cnc(Nc3ccnc(N4CCC5OCCC5C4)n3)cc21 (stereo not drawn) [Example 194] | 0.216 |
| CC(C)n1cnc2cnc(Nc3ccnc(N4CCC5OCCC5C4)n3)cc21 (stereo not drawn) [Example 195] | 0.181 |
| CNC(=O)C1C2CN(c3nccc(Nc4cc5c(cn4)ncn5C(C)C)n3)CC21 (stereo not drawn) [Example 196] | 1.03 |
| CNC(=O)C1CN(c2nccc(Nc3cc4c(cn3)ncn4C(C)C)n2)C1 [Example 197] | 1.8 |
| CC(C)n1cnc2cnc(Nc3ccnc(N4CC(C(=O)N5CCOCC5)C4)n3)cc21 [Example 198] | 1.24 |
| CC(C)n1cnc2cnc(Nc3ccnc(N4CCC(CC(=O)N(C)C)CC4)n3)cc21 [Example 199] | 0.734 |
| CC(C)n1cnc2cnc(Nc3ccnc(N4CCCC(O)CC4)n3)cc21 (stereo not drawn) [Example 200] | 1.19 |
| CC(C)n1cnc2cnc(Nc3ccnc(N4CCC(N(C)C(=O)OC(C)(C)C)C4)n3)cc21 (stereo not drawn) [Example 201] | 1.22 |
| CNC(=O)C1(C)CCN(c2nccc(Nc3cc4c(cn3)ncn4C(C)C)n2)CC1 [Example 202] | 0.429 |
| CC(C)n1cnc2cnc(Nc3ccnc(N4CCCC4CO)n3)cc21 (stereo not drawn) [Example 203] | 0.422 |
| CCN1CCC(CN(C)c2nccc(Nc3cc4c(cn3)ncn4C(C)C)n2)C1 (stereo not drawn) [Example 204] | 1.86 |
| CC(C)n1cnc2cnc(Nc3ccnc(N4CCN5CCCC5C4)n3)cc21 (stereo not drawn) [Example 205] | 1.16 |

| SMILES | Ki [µM] |
| --- | --- |
| CC(C)n1cnc2cnc(Nc3ccnc(NCC4CCCOC4)n3)cc21 (stereo not drawn) [Example 206] | 0.975 |
| CC(C)n1cnc2cnc(Nc3ccnc(N4CCN(CCN(C)C)CC4)n3)cc21 [Example 207] | 1.55 |
| CC(C)n1cnc2cnc(Nc3ccnc(NCC4CCOCC4)n3)cc21 [Example 208] | 1.02 |
| CC1CN(c2nccc(Nc3cc4c(cn3)ncn4C(C)C)n2)CC1O (stereo not drawn) [Example 209] | 0.379 |
| CC1CCN(CCNc2nccc(Nc3cc4c(cn3)ncn4C(C)C)n2)CC1 [Example 210] | 1.35 |
| CC(C)n1cnc2cnc(Nc3ccnc(N4CCOC5(CCOC5)C4)n3)cc21 (stereo not drawn) [Example 211] | 0.551 |
| CC(C)n1cnc2cnc(Nc3ccnc(N4CC5CCOC5C4)n3)cc21 (stereo not drawn) [Example 212] | 0.643 |
| CC(C)n1cnc2cnc(Nc3ccnc(N4CC5(CCCOC5)C4)n3)cc21 [Example 213] | 0.812 |
| CC(C)n1cnc2cnc(Nc3ccnc(N4C5CCC4C(C(N)=O)C5)n3)cc21 (stereo not drawn) [Example 214] | 1.17 |
| CC(C)n1cnc2cnc(Nc3ccnc(N4CCC(C)(O)C4)n3)cc21 (stereo not drawn) [Example 215] | 0.832 |
| CC(C)n1cnc2cnc(Nc3ccnc(N4CC5CC5C4)n3)cc21 (stereo not drawn) [Example 216] | 0.443 |
| CC(C)n1cnc2cnc(Nc3ccnc(N4CCC5CC54)n3)cc21 (stereo not drawn) [Example 217] | 0.758 |
| CC(C)n1cnc2cnc(Nc3ccnc(N4CC5COCC5C4)n3)cc21 (stereo not drawn) [Example 218] | 0.353 |
| CC(C)n1cnc2cnc(Nc3ccnc(N4CCC(CN)C4)n3)cc21 (stereo not drawn) [Example 219] | 1.78 |
| CC(C)n1cnc2cnc(Nc3ccnc(N4CCC(CN)CC4)n3)cc21 [Example 220] | 0.843 |
| CCNc1nccc(Nc2cc3c(cn2)ncn3C(C)C)n1 [Example 221] | 1.05 |
| CC(C)n1cnc2cnc(Nc3ccnc(N4CCC5(CC4)CNC5)n3)cc21 [Example 222] | 1.69 |
| CC(C)n1cnc2cnc(Nc3ccnc(N4CC5(CCCNC5)C4)n3)cc21 [Example 223] | 1.46 |
| CC(C)n1cnc2cnc(Nc3ccnc(N4CCC5(CCNCC5)C4)n3)cc21 [Example 224] | 1.78 |
| CC(C)n1cnc2cnc(Nc3ccnc(N4CCCC5(CCCN5)CC4)n3)cc21 (stereo not drawn) [Example 225] | 0.998 |
| CC(C)n1cnc2cnc(Nc3ccnc(N4CCC5(CCCCN5)C4)n3)cc21 (stereo not drawn) [Example 226] | 1.25 |
| CC(C)n1cnc2cnc(Nc3ccnc(N4CCC5(CCNCC5)CC4)n3)cc21 [Example 227] | 1.58 |
| CC(C)n1cnc2cnc(Nc3ccnc(N4CCC5(CCN5)CC4)n3)cc21 [Example 228] | 0.548 |
| CC(C)n1cnc2cnc(Nc3ccnc(NC4COC5(CCNCC5)C4)n3)cc21 (stereo not drawn) [Example 229] | 0.105 |
| CC(C)n1cnc2cnc(Nc3ccnc(N4CCC5(CC4)CNCCO5)n3)cc21 [Example 230] | 0.115 |
